What was measured:
D(3) dopamine receptor [1] = target: T1, D(3) dopamine receptor (Homo sapiens, UniProt P35462); test: Antagonist activity at human dopamine D3 receptor expressed in CHOp cells assessed as inhibition of quinpirole-induced mitogenesis; assay type: functional, cell-based
D(3) dopamine receptor [2] = target: T1, D(3) dopamine receptor; test: Antagonist activity at human dopamine D3 receptor expressed in CHO-K1 cells assessed as inhibition of dopamine-induced recruitment of beta-arrestin-2 after 90 mins by beta-galactosidase assay; assay type: functional, cell-based

Chains of the proteins cited; added tags and fusions are not shown.
UniProt P35462, whole entry: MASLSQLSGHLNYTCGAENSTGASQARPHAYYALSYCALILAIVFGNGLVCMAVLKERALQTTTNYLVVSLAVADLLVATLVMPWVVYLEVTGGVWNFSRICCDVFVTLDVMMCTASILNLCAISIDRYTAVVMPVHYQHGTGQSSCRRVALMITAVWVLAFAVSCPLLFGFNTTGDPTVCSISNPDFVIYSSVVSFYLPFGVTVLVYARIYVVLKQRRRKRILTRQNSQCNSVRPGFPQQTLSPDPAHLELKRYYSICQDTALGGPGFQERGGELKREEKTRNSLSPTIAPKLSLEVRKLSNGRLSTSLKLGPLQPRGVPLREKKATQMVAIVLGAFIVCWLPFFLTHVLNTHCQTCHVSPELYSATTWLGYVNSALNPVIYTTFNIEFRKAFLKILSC

IC50 (D(3) dopamine receptor [1]): 66.2 nM
IC50 (D(3) dopamine receptor [2]): 560 nM
SMILES: CCN1CCCC1CNC(=O)c1cc(S(N)(=O)=O)ccc1OC (configuration not stated) [SULPIRIDE]

From ChEMBL document CHEMBL1772985, “N-(3-fluoro-4-(4-(2-methoxy or 2,3-dichlorophenyl)piperazine-1-yl)butyl)arylcarboxamides as selective dopamine D3 receptor ligands: critical role of the carboxamide linker for D3 receptor selectivity” (J Med Chem, 2011)
